Laboratory results: patent US12274731B1, “Polybasic antimalarial agents and methods of use thereof” (priority 2018, dated 2025)

Test system: human erythrocytes
Experiment: Hemolysis in erythrocyte culture
Format: cell-based
Settings: at IC50

Substance: poly-L-ornithine
- hemolysis: without hemolysis
